Test results: patent US20110142757A1, “NOVEL COMPOUNDS AND THEIR USES IN DIAGNOSIS” (the University of Sydney, priority 2008, published 2011)
pKi: −log10 of the molar value. Read-outs that look alike come from different tables or passages of the source.

The chains behind the UniProt entries cited, without tags or fusion partners.
UniProt P30536, whole entry: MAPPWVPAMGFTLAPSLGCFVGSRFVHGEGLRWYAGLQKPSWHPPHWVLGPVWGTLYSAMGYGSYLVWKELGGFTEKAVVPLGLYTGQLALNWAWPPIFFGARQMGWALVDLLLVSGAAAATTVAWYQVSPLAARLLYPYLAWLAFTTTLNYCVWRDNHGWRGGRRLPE

Biological target: human TSPO (Homo sapiens, UniProt P30536)
Assay: [3H]PK11195 competition binding assay, mitochondrial membranes of HEK293 cells transfected with human TSPO
[1] = read-out: Binding Affinity (Ki) ± Standard Error, Site 1, competition with 6 nM [3H]PK11195, one-site or two-site competition fit
[2] = read-out: Binding Affinity (Ki) ± Standard Error, Site 2, competition with 6 nM [3H]PK11195, two-site competition fit

Compound	pKi [1]	pKi [2]
CCN(CC)C(=O)Cc1c(-c2ccc(OCCCCCCCCOc3ccc(-c4nn5c(C)cc(C)nc5c4CC(=O)N(CC)CC)cc3)cc2)nn2c(C)cc(C)nc12	9.48	7.29
CCN(CC)C(=O)Cc1c(-c2ccc(OCCCCOc3ccc(-c4nn5c(C)cc(C)nc5c4CC(=O)N(CC)CC)cc3)cc2)nn2c(C)cc(C)nc12	8.22	–
CCN(CC)C(=O)Cc1c(-c2ccc(OCCCCCCCCCCCCOc3ccc(-c4nn5c(C)cc(C)nc5c4CC(=O)N(CC)CC)cc3)cc2)nn2c(C)cc(C)nc12	10.28	7.31
CCN(CC)C(=O)Cc1c(-c2ccc(OCCCCCCOc3ccc(-c4nn5c(C)cc(C)nc5c4CC(=O)N(CC)CC)cc3)cc2)nn2c(C)cc(C)nc12	11.05	7.94
